Measurements: patent US20250170120A1, “ALLOSTERIC STING MODULATORS AND METHODS OF USE” (THE BOARD OF REGENTS OF THE UNIVERSITY OF TEXAS SYSTEM, priority 2022, published 2025)

Chains of the proteins cited; added tags and fusions are not shown. Residues count along the entry.
UniProt Q86WV6, whole entry H232R: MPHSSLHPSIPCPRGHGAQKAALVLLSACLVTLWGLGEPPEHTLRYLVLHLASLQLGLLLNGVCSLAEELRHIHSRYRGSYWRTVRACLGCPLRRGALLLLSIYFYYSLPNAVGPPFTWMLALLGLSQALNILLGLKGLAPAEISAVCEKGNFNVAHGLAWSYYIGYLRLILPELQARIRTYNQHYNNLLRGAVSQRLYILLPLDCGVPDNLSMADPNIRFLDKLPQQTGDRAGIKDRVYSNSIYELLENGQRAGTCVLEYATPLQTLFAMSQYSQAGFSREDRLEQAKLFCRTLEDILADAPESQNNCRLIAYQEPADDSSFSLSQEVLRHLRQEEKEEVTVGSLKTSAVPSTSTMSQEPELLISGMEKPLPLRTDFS
UniProt Q86WV6, 1-343 H232R limits assumed: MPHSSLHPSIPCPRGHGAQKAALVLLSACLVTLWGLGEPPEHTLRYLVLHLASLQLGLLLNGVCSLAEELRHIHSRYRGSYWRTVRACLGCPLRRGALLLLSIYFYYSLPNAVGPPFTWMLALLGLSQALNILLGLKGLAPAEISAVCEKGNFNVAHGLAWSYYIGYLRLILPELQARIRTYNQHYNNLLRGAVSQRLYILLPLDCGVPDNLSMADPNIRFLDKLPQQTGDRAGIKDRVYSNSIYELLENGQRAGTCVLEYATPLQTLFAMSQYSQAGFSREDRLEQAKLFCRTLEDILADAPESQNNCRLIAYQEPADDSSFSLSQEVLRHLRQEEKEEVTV
UniProt Q86WV6, whole entry R71H/G230A/H232R/R293Q: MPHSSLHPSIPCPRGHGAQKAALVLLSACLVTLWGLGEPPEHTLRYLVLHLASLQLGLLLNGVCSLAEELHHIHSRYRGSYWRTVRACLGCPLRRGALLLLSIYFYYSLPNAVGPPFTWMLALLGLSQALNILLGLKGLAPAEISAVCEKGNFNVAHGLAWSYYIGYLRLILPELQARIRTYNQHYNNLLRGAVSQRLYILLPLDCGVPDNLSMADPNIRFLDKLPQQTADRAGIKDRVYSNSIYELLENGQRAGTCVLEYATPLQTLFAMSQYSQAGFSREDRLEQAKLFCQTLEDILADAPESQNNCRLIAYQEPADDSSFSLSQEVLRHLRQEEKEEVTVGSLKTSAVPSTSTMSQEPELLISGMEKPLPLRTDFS
UniProt Q3TBT3, whole entry: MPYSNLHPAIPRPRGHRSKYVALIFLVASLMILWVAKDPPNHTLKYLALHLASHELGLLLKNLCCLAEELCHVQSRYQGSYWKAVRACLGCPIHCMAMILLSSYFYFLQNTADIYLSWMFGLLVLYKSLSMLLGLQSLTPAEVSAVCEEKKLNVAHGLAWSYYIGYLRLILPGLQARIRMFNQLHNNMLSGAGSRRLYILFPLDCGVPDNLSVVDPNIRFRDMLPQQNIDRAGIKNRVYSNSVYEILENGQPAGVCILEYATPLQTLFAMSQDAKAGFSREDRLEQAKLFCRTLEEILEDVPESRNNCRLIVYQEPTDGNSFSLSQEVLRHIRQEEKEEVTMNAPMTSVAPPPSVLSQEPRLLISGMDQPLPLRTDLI

Columns and labels:
human STING [1] = target: T1, human STING (Homo sapiens, UniProt Q86WV6); conditions: cited from earlier work
human STING [2] = target: T2, human STING (Homo sapiens, UniProt Q86WV6, H232R); assay: Cryo-EM structure of human STING in complex with compound
mouse STING = mouse STING (Mus musculus, UniProt Q3TBT3); conditions: cited from earlier work
human STING [3] = target: T2, human STING; assay: Native gel analysis of oligomerization of purified human STING; type: biochemical; conditions: detergent solution, either one alone
human STING [4] = target: T1, human STING; assay: Western blot of phosphorylation of STING, TBK1 and IRF3 in HEK293T cells transfected with human STING; type: cell-based; conditions: C53 and cGAMP together vs either alone
Description: Western blot analyses of phosphorylation of STING, TBK1 and IRF3. The coding sequence for full-length human STING fused with a C-terminal FLAG-tag was cloned into the pcDNA3.1A(+) vector (Invitrogen). Mutations were introduced by PCR-based mutagenesis. Plasmids were transfected with 500 ng into HEK293T cells in 6-well plates and cultured for additional 24 hours. […] Human STING protein was detected by anti-FLAG primary antibody (Bimake, Cat #A5712; 3000× dilution) and anti-Mouse IgG HRP-linked secondary antibody (Cell Signaling Technology, Cat #7076S; 3000× dilution). Phosphorylated STING was detected by Rabbit anti-phospho-STING (S366) antibody (Cell Signaling Technology, Cat #19781S; 1000× dilution) and anti-Rabbit IgG HRP-linked secondary antibody (Cell Signaling Technology, Cat #7074S; 3000× dilution). TBK1 was detected by Mouse anti-TBK1/NAK antibody (Cell Signaling Technology, Cat #51872S; 1000× dilution). Phosphorylated TBK1 was detected by Rabbit anti-phospho-TBK1/NAK antibody (Cell Signaling Technology, Cat #5483S; 1000× dilution). IRF3 was detected by Mouse anti-IRF3 antibody (Abcam, Cat #ab50772; 100× dilution) and phosphorylated IRF was detected by Rabbit anti-phospho-IRF3 (S386) (Abcam, Cat #ab76493; 1000× dilution).

STING = STING (Homo sapiens, UniProt Q86WV6, G230A/H232R/R293Q/R71H); assay: Induction of interferon by compound alone in THP-1 cells (agonist activity); conditions: increasing concentrations of compound

For CC1(C)C(=O)N(Cc2c(F)cccc2Cl)c2cc(C(=O)NCc3c(F)cc(F)cc3F)ccc21, the “Activation of human STING” value (human STING [1]) is listed as “activated human STING”, the “Binding site in human STING (cryo-EM)” value (human STING [2]) is listed as “bind to the cryptic site in human STING-TMD through an induced-fit mechanism” and the “Activation of mouse STING” value (mouse STING) is listed as “not mouse STING”. For the same compound, the “Oligomerization of purified human STING, agonist alone” value (human STING [3]) was “failed to do so”, the “Phosphorylation of STING-WT, TBK1 and IRF3” value (human STING [4]) was “higher levels of phosphorylation of STING-WT, TBK1 and IRF3 than either agonist alone” and the “Relative induction of interferon production by compound alone” value (STING) was “enhanced in a dose-dependent manner”.
